Measurements from US20180264072A1.

Amino acid sequences for entries named in this document (tags omitted). Residues count along the entry.
A483:HVD1 complex, UniProt P18206, 1-258 limits assumed: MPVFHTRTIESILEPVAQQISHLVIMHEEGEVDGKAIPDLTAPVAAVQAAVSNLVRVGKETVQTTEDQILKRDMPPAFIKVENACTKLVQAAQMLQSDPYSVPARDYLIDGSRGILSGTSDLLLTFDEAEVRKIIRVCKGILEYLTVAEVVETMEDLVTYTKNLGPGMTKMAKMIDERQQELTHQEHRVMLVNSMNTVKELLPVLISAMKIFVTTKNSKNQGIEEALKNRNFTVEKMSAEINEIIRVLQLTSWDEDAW

Target: talin H1-H4
Assay: ITC; HVD1:A483 equimolar complex in the cell, talin H1-H4 as titrant

Question: For “A483:HVD1 complex (from UniProt P18010 483-633; P18206 1-258)”, which Kd is on record?
Answer: 2.94 µM
